Drawing on patent US6465433B1, “Boronic ester and acid compounds, synthesis and uses” (Millennium Pharmaceuticals, Inc., priority 1994, dated 2002), this text covers Ki and IC50 for 7 compounds.

The target in test [1] is SDS-activated 20S proteasome from rabbit muscle (Oryctolagus cuniculus, UniProt G1SU71+G1T4Q9). Description: Kinetic assay: inhibition of the 20S proteasome. It is filed as biochemical. The conditions noted are these: read-out: 20S Ki, Table II, substrate Suc-LLVY-AMC.
In test [2] the test system is C2C12 cells. Kind of test: Inhibition of protein degradation in C2C12 cells. The conditions noted are these: read-out: IC50, inhibition of protein degradation in C2C12 cells; 35S-methionine labelled cells; percent decrease in TCA soluble radioactivity; media with 50% serum.

By Ki is commonly meant the dissociation constant of the complex between target and ligand, obtained from inhibition or displacement. As for `Cc1ccc(S(=O)(=O)N[C@@H](Cc2cccc3ccccc23)C(=O)N[C@@H](CC(C)C)B(O)O)cc1`, the Ki in test [1] came out at 0.17 nM.

In the case of `CC(C)C[C@H](NC(=O)[C@H](Cc1ccc(OCc2ccccn2)cc1)NC(=O)N1CCOCC1)B(O)O`, the Ki in test [1] worked out at 0.2 nM. In general, IC50 refers to the midpoint of a concentration-inhibition curve. On to `CC(C)C[C@H](NC(=O)[C@H](Cc1cccc2ccccc12)N(C)C(=O)OCc1ccccc1)B(O)O`, for which, in test [1], the Ki is 0.95 nM. Besides, the IC50 in test [2] was 950 nM.

For the compound `CC(C)CC(NC(=O)C1CCC(=O)N1)B(O)O` (stereo not shown), the Ki in test [1] came to 480 nM.

For the compound `CC(=O)N[C@@H](CC(C)C)C(=O)N[C@@H](Cc1cccc2ccccc12)C(=O)N[C@@H](CC(C)C)B(O)O`, in test [1], the Ki was determined as 0.022 nM. The IC50 in test [2] is 240 nM. `CC(C)C[C@@H](NC(=O)[C@H](Cc1cccc2ccccc12)NC(=O)N1CCOCC1)B(O)O`: the Ki in test [1] stood at 72.5 nM.

For `CC(=O)N[C@@H](Cc1cccc2ccccc12)C(=O)N[C@@H](CC(C)C)B(O)O`, the Ki in test [1] was found to be 0.13 nM. Moreover, the IC50 in test [2] came out at 106 nM.
